Drawing on ChEMBL document CHEMBL1268946, “Discovery of 2-substituted benzoxazole carboxamides as 5-HT3 receptor antagonists” (Bioorg Med Chem Lett, 2010), this text covers IC50 for one molecule.

Protein sequences, listed by entry. Tags and fused reporters are not part of them. Lines headed by an entry give the natural chain unless they say otherwise; changes in a name come on top.
UniProt Q12809: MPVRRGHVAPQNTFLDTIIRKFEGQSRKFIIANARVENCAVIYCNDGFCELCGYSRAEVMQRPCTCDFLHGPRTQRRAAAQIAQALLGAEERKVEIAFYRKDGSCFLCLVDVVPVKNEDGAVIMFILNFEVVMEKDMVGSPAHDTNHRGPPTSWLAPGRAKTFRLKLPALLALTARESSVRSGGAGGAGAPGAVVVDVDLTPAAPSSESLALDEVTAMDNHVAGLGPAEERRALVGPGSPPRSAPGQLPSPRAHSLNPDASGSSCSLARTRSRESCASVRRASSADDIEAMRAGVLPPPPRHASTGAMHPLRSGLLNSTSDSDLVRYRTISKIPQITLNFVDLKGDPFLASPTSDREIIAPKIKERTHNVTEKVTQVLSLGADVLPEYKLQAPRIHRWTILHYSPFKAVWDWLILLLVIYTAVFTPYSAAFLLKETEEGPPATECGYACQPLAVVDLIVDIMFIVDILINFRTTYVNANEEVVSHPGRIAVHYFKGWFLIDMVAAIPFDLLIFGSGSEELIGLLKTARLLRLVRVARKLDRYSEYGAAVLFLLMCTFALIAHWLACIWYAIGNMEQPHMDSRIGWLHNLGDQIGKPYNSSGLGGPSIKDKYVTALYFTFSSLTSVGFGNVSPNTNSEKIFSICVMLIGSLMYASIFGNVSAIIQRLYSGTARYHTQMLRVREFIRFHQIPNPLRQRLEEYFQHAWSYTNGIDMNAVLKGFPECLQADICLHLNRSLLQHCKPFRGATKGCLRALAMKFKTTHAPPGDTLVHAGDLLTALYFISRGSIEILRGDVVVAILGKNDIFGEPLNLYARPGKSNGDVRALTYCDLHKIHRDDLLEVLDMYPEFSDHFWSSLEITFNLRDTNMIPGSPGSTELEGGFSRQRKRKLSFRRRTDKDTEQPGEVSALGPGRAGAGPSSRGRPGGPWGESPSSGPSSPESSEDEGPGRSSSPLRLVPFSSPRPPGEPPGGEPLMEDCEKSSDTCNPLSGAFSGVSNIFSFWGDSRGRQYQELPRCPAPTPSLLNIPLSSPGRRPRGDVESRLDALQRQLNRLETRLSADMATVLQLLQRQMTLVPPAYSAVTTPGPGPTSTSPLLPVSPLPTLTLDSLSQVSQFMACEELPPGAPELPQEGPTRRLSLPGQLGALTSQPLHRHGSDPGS

SMILES strings stand for the structures.

This assay has as its target Voltage-gated inwardly rectifying potassium channel KCNH2 (Homo sapiens, UniProt Q12809). Description: Inhibition of human ERG expressed in HEK cells by patch clamp technique. A general note: In patch-clamp work, channel activity is measured electrically.

As usually defined, the IC50 is the midpoint of a concentration-inhibition curve. A higher IC50 goes with a need for much substance. Turning to `Cc1nccn1CC1CCc2c(c3ccccc3n2C)C1=O` (stereo unspecified) [ONDANSETRON], it took 400 nM to reach half-maximal inhibition (IC50). This counts as sub-micromolar.
